The nature of one series: in vitro. The settings on record: dog, MDCK.
A further series has as its target BCRP (Homo sapiens, UniProt Q9UNQ0). The settings on record: read-out: BCRP Ki; Simcyp SV-Rifampicin-SD library compound file; cited from earlier work.

The chains behind the UniProt entries cited, without tags or fusion partners. Where a name states a change or a piece, a line headed by the entry shows the natural chain unless it says otherwise.
UniProt Q9UNQ0: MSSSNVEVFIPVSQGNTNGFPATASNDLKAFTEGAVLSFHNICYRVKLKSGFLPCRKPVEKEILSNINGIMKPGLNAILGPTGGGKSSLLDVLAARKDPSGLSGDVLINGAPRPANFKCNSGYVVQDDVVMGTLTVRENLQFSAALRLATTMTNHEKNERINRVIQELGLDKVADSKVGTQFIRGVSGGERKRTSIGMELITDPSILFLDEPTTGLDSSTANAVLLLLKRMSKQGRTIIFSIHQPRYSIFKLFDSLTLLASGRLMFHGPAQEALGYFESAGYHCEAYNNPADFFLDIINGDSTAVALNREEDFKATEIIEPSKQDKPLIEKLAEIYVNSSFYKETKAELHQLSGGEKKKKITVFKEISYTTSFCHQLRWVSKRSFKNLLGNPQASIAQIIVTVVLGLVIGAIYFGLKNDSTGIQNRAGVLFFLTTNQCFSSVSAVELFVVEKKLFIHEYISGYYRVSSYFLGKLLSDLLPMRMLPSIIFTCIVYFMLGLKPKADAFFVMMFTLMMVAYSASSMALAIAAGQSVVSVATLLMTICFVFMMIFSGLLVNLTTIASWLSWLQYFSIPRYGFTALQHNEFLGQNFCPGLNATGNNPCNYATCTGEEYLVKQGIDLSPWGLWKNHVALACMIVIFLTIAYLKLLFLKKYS

In the case of `O=C(Nc1ccc(OC(F)(F)Cl)cc1)c1cnc(N2CC[C@@H](O)C2)c(-c2ccn[nH]2)c1` [asciminib], the Papp A→B (as a rule, the apparent permeability from the apical to the basolateral side of a cell layer) in the series “in vitro” is 22.1 ×10⁻⁶ cm/s.
Consider `CO[C@H]1/C=C/O[C@@]2(C)Oc3c(C)c(O)c4c(O)c(c(/C=N/N5CCN(C)CC5)c(O)c4c3C2=O)NC(=O)/C(C)=C\C=C\[C@H](C)[C@H](O)[C@@H](C)[C@@H](O)[C@@H](C)[C@H](OC(C)=O)[C@@H]1C` [rifampicin], for which, at BCRP, the inhibitory constant (Ki) (as a rule, a dissociation constant, usually derived from enzyme kinetics or from competition with a known ligand) was 12.5 µM.

The values are drawn from paper PMC12567041 (Pharmaceutics, 2025).
